Target: T1, human β3-adrenergic receptor (Homo sapiens, UniProt P13945)
T1 construct: Full length β3 AR clones (402 amino acids) containing the last 6 amino acids of hβ3—AR are prepared; expressed in transfected cells; host or cells: CHO cells
Assay: cAMP response (SPA kit) in CHO cells transfected with human β3 adrenergic receptor
Assay type: cell-based

The chains behind the UniProt entries cited, without tags or fusion partners. Where a name states a change or a piece, a line headed by the entry shows the natural chain unless it says otherwise.
UniProt P13945: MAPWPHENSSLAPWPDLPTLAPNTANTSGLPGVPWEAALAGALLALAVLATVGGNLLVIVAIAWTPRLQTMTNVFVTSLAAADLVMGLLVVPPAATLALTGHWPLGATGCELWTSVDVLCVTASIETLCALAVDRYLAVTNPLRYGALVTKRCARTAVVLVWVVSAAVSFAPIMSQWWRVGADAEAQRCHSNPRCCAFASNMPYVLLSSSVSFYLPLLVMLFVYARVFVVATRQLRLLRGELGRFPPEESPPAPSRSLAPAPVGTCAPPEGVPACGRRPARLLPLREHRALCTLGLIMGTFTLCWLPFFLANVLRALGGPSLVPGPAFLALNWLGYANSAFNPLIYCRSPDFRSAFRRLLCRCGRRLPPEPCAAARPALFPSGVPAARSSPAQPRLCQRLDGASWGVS

With `O=C(NC1CCCCC1)N1CCC(Nc2ccc(CCNC[C@H](O)COc3ccc(O)cc3)cc2)CC1` [Example 2] the EC50 (CHO cells expressing human β3-AR, 10^-9 M to 10^-5 M, 30 min at 37° C., cAMP by SPA) was 80 nM and the “IA(β3)” value (maximal response of compound compared to maximal response of isoproterenol at 10^-5 M, CHO cells, human β3-AR) was 1.12.

— patent publication US6451814B1, “Heterocyclic β-3 adrenergic receptor agonists” (Wyeth, priority 2000, dated 2002)
